The list shows a part of the results, in another mix than the full data. Some salts and complexes are drawn in separate pieces, as the source files them; their charges need not balance. Activity calls are given as the source filed them.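 Rule for the calls: active = inhibition above about 50% at 20 µM (limit read from the data); inactive = the rest.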

The chains behind the UniProt entries cited, without tags or fusion partners. Residues count along the entry.
UniProt Q9GZU7, 76-261 limits assumed: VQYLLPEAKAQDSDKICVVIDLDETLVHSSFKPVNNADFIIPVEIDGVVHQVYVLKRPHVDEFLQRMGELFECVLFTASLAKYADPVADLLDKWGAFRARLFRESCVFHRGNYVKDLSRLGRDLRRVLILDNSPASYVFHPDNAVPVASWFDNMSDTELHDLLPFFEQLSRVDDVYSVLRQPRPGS

This assay concerns the target Carboxy-terminal domain RNA polymerase II polypeptide A small phosphatase 1 (Homo sapiens) (UniProt Q9GZU7). Kind of assay: inhibition of human SCP1 dephosphorylation activity – biochemical, colorimetric, uHTS, primary screen (AID 493091).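 Note: plate controls were DMSO wells with enzyme for no effect and wells lacking enzyme for full effect.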 Particulars: Recombinant Scp1, phosphopeptide, malachite green phosphate absorbance; at 20 µM; active compounds read high.
With `CCN(CC)CCCOC(=O)C(O)(c1ccccc1)C1CCCCC1` (configuration not stated), the inhibition was inactive: -17.3%.

As to `Cc1c([N+](=O)[O-])cc([N+](=O)[O-])c(Br)c1[N+](=O)[O-]`, the inhibition was inactive: -6.75%.

In the case of `O=[N+]([O-])c1cc([N+](=O)[O-])c(OC2CCCCC2O)c([N+](=O)[O-])c1` (configuration not stated), the inhibition was inactive: -5.15%.

On to `CCCCCOc1ccc(NP(C)(=O)Oc2ccc(Cl)cc2Cl)cc1` (configuration not stated), for which the inhibition was inactive: 5.27%.

For `CP(=O)(Nc1ccccc1)Oc1ccc(F)cc1` (configuration not stated), the inhibition was inactive: -5.22%.

Turning to `COc1ccc(OP(C)(=O)Nc2ccc(SC(F)(F)F)cc2)cc1` (configuration not stated), the inhibition was inactive: -12.5%.

Take `CCOC(=O)c1ccc(NP(C)(=O)Oc2ccc(F)cc2)cc1` (configuration not stated): the inhibition was inactive: -10.7%.

As to `O=C(OCCN1CCN(CCOCc2ccccc2)CC1)C(O)(c1ccccc1)c1ccccc1`, the inhibition was inactive: -27.1%.

For `O=C(OC1CN2CCC1CC2)c1ccc([N+](=O)[O-])cc1` (configuration not stated), the inhibition is inactive: -11.4%.

On to `COc1ccc2c(c1O)-c1c(O)c(OC)cc3c1[C@H](C2)[N+](C)(C)CC3.O=[N+]([O-])c1cc([N+](=O)[O-])c([O-])c([N+](=O)[O-])c1[O-]`, for which the inhibition was inactive: 1.23%.

Take `CC(C)c1ccc(OP(C)(=O)Nc2ccc(SC(F)(F)F)cc2)cc1` (configuration not stated): the inhibition was inactive: -7.76%.

Turning to `CP(=O)(Nc1ccccc1F)Oc1ccccc1` (configuration not stated), the inhibition is inactive: 0.4%.

Turning to `CP(=O)(Nc1ccc2c(c1)OCCO2)Oc1ccccc1` (configuration not stated), the inhibition is inactive: -3.11%.

In the case of `Cc1ccccc1NP(C)(=O)Nc1ccccc1C`, the inhibition is inactive: -5.63%.

On to `CP(=O)(Nc1ccc(SC(F)(F)F)cc1)Oc1ccc(F)cc1` (configuration not stated), for which the inhibition was inactive: -3.06%.

`CCOP(C)(=S)SCC(=O)NC(C)(CC)C(=O)O` (configuration not stated): the inhibition was inactive: -5.99%.

Turning to `O=[N+]([O-])c1cc([N+](=O)[O-])c(NCC2CCS(=O)(=O)C2)c([N+](=O)[O-])c1` (configuration not stated), the inhibition is inactive: -5.09%.

Turning to `Cc1cc(-c2cccc3ccccc23)c(C)cn1.O=[N+]([O-])c1cc([N+](=O)[O-])c(O)c([N+](=O)[O-])c1`, the inhibition is inactive: -1.97%.

Take `O=[N+]([O-])c1ccc(OP2(=O)COCCO2)cc1` (configuration not stated): the inhibition was inactive: -1.75%.

`Cc1c(C(c2ccc3c(c2)OCO3)c2c(C)n(C)n(-c3ccccc3)c2=O)c(=O)n(-c2ccccc2)n1C.O=[N+]([O-])c1cc([N+](=O)[O-])c(O)c([N+](=O)[O-])c1`: the inhibition was inactive: -0.82%.

Take `COc1ccc(OP(C)(=O)Nc2cccc(Br)c2)cc1` (configuration not stated): the inhibition was inactive: -12.1%.

Consider `COc1ccc(NP(C)(=O)Oc2ccccc2OC)cc1` (configuration not stated), for which the inhibition was inactive: 0.9%.

For `CN(C)CCOC(=O)C(O)(c1ccccc1)C1CCCCC1` (configuration not stated), the inhibition was inactive: 8.88%.

For `Nc1ccc2c(ccc3cccnc32)n1.O=[N+]([O-])c1cc([N+](=O)[O-])c(O)c([N+](=O)[O-])c1`, the inhibition was inactive: -6.97%.

As to `CP(=O)(OC12CC3CC(CC(C3)C1)C2)OC12CC3CC(CC(C3)C1)C2`, the inhibition is inactive: -10.7%.

`CCOC(=O)c1ccc(NP(C)(=O)Oc2ccc(Cl)cc2)cc1` (configuration not stated): the inhibition is inactive: -10.3%.

For `CP(=O)(Nc1ccc(Cl)cc1)Oc1ccc(F)cc1` (configuration not stated), the inhibition was inactive: -2.46%.

Turning to `COc1ccccc1OP(C)(=O)Nc1ccccc1Br` (configuration not stated), the inhibition was inactive: 2.01%.

As to `CC(C)(C)c1ccc(OP(C)(=O)O)cc1`, the inhibition was inactive: -3.44%.

With `CN(C)C(=O)c1c([N+](=O)[O-])cc([N+](=O)[O-])cc1[N+](=O)[O-]`, the inhibition is inactive: -3.26%.

As to `CCN(CC)CC(O)COC(=O)C(O)(c1ccccc1)C1CCCCC1` (configuration not stated), the inhibition is inactive: -9.5%.

Take `COc1ccc(OP(C)(=O)Nc2ccc(Br)cc2)cc1` (configuration not stated): the inhibition was inactive: -2.57%.

In the case of `CP(=O)(Oc1ccccc1)N1CCOC1=O` (configuration not stated), the inhibition is inactive: 0.47%.

For `CCc1ccc(OP(C)(=O)Nc2cccnc2)cc1` (configuration not stated), the inhibition is inactive: -2.92%.

As to `COc1ccccc1OP(C)(=O)Nc1c(C)n(C)n(-c2ccccc2)c1=O` (configuration not stated), the inhibition was inactive: -3.29%.

As for `O=C(OCCCN1CCCC1)C(O)(c1ccccc1)C1CCCCC1` (configuration not stated), the inhibition is inactive: -7.3%.

For `Cc1c(NP(C)(=O)Oc2ccc(C(C)C)cc2)c(=O)n(-c2ccccc2)n1C` (configuration not stated), the inhibition is inactive: -5.02%.

Take `O=[N+]([O-])c1cc([N+](=O)[O-])c(Nc2ccccn2)c([N+](=O)[O-])c1`: the inhibition was inactive: -3.64%.

With `CP(=O)(Nc1ccccn1)Oc1ccccc1` (configuration not stated), the inhibition was inactive: -3.29%.

With `COc1ccccc1OP(C)(=O)Nc1ccc(C)cc1C` (configuration not stated), the inhibition was inactive: 27.7%.

`COc1ccccc1OP(C)(=O)Nc1ccc(Br)cc1` (configuration not stated): the inhibition is inactive: -12.3%.

In the case of `CN(C)CCOC(=O)C(O)(c1ccccc1)C1CCCC1` (configuration not stated), the inhibition is inactive: -6.35%.

As to `COc1ccc(OP(C)(=O)Nc2ccccn2)cc1` (configuration not stated), the inhibition is inactive: -2.05%.

For `CP(=O)(Nc1ccc(Cl)cc1Cl)Oc1ccccc1` (configuration not stated), the inhibition is inactive: 1.07%.

For `CCCCCCCCCCCCCCCC1C[N+](C)(C)CCOP(C)(=O)O1` (configuration not stated), the inhibition is inactive: 9.6%.

`CP(=O)(OCCOc1ccccc1)OCCOc1ccccc1`: the inhibition is inactive: -14.2%.

As for `O=C1C(O)=C([N+](=O)[O-])C(=O)C(O)=C1[N+](=O)[O-]`, the inhibition is active: 55.9%.

As to `Cc1cc(C)cc(OP(C)(=O)Nc2cccc(C(F)(F)F)c2)c1` (configuration not stated), the inhibition was inactive: 3.43%.

Take `COc1ccc(OP(C)(=O)Nc2ccccc2Br)cc1` (configuration not stated): the inhibition is inactive: -5.22%.

In the case of `COc1ccccc1OP(C)(=O)Nc1ccc(C)c(C)c1` (configuration not stated), the inhibition is inactive: -6%.

As for `CCOC(=O)c1ccc(NP(C)(=O)Oc2ccccc2)cc1` (configuration not stated), the inhibition is inactive: 2.73%.

As to `COc1ccccc1OP(C)(=O)Nc1ccc(C)cc1` (configuration not stated), the inhibition was inactive: 9.84%.

For the compound `Cc1ccc(NP(C)(=O)Oc2ccccc2)c(C)c1` (configuration not stated), the inhibition is inactive: 3.26%.

Take `COc1ccccc1OP(C)(=O)Nc1cc(Cl)ccc1C` (configuration not stated): the inhibition was inactive: 1.45%.

`COc1ccc(OP(C)(=O)Nc2cccc(F)c2)cc1` (configuration not stated): the inhibition is inactive: -6.73%.

For the compound `Cc1cc(C)cc(OP(C)(N)=O)c1` (configuration not stated), the inhibition is inactive: 3.65%.

For the compound `O=[N+]([O-])c1cc([N+](=O)[O-])c(Nc2cccnc2)c([N+](=O)[O-])c1`, the inhibition is inactive: -6.15%.

On to `CC(C)(C)c1ccc(OP(C)(=O)Nc2ccc(SC(F)(F)F)cc2)cc1` (configuration not stated), for which the inhibition was inactive: -7.87%.

With `Cc1cccc(C)c1OP(C)(N)=O` (configuration not stated), the inhibition was inactive: -0.73%.

Take `O=[N+]([O-])c1ccc2c(c1)C=Nc1ccccc1O2`: the inhibition is inactive: 2.1%.

Take `CCN(CC)CCCOC(=O)C(O)(c1ccccc1)c1ccccc1`: the inhibition is inactive: -6.09%.

`CCOP(C)(=S)SCC(=O)NC(C)C(=O)O` (configuration not stated): the inhibition is inactive: -9.63%.

For the compound `O=[N+]([O-])c1cc([N+](=O)[O-])c(O)c([N+](=O)[O-])c1.c1ccc(Oc2ccncc2)cc1`, the inhibition is inactive: 0.11%.

As to `CCOC(=O)c1ccc(NP(C)(=O)Oc2ccc(OC)cc2)cc1` (configuration not stated), the inhibition was inactive: -1.66%.

Turning to `CP(=O)(Nc1ccccn1)Oc1ccc(Cl)cc1` (configuration not stated), the inhibition is inactive: -3.82%.

Turning to `CP(=O)(Nc1ccc(SC(F)(F)F)cc1)Oc1ccc(Cl)cc1` (configuration not stated), the inhibition is inactive: -3.06%.

Regarding `Cc1cccc(C)c1OP(C)(=O)Nc1ccc(SC(F)(F)F)cc1` (configuration not stated), the inhibition was inactive: -8.67%.

As for `CP(=O)(Oc1ccccc1)OC(c1ccccc1)C(F)(F)F` (configuration not stated), the inhibition was inactive: -3.99%.

Consider `CP(=O)(NC(=O)Nc1ccccc1)Oc1ccccc1` (configuration not stated), for which the inhibition is inactive: 9.82%.

Consider `CCc1ccc(OP(C)(=O)N2CCN(c3ccc([N+](=O)[O-])cc3)CC2)cc1` (configuration not stated), for which the inhibition was inactive: -26.6%.

With `Cc1cc(C)cc(OP(C)(=O)Nc2ccc(SC(F)(F)F)cc2)c1` (configuration not stated), the inhibition was inactive: -2.15%.

Take `CP(=S)(Nn1cnnc1)Oc1ccccc1` (configuration not stated): the inhibition is inactive: 0.32%.

On to `COc1ccccc1OP(C)(=O)Nc1ccccc1` (configuration not stated), for which the inhibition is inactive: -5.95%.

`CP(=O)(Nc1ccccc1Br)Oc1ccccc1` (configuration not stated): the inhibition was inactive: -10.5%.

`CN1CCCCC1COC(=O)C1(O)c2ccccc2CCc2ccccc21` (configuration not stated): the inhibition is inactive: -0.16%.

Consider `COc1ccccc1OP(C)(=O)Nc1c(C)cccc1C` (configuration not stated), for which the inhibition is inactive: -10.8%.

Turning to `CCCOc1ccc(NP(C)(=O)Oc2ccc(Cl)cc2)cc1` (configuration not stated), the inhibition was inactive: -6.46%.

Take `CP(=O)(Nc1ccc(SC(F)(F)F)cc1)Oc1ccccc1` (configuration not stated): the inhibition is inactive: -3.66%.

Take `CC1=C2N=C(C=C3N=C(C(C)=C4[N-][C@@](C)([C@@H]5N=C1[C@](C)(CCC(=O)NC[C@@H](C)OP(=O)([O-])O[C@H]1[C@@H](O)[C@@H](n6cnc7cc(C)c(C)cc76)O[C@@H]1CO)[C@H]5CC(N)=O)[C@@](C)(CC(N)=O)[C@@H]4CCC(N)=O)[C@@](C)(CC(N)=O)[C@@H]3CCC(N)=O)C(C)(C)[C@@H]2CCC(N)=O.[C-]#N.[Co+3]`: the inhibition is inactive: 2.07%.

For the compound `O=[N+]([O-])c1cc([N+](=O)[O-])c(Nc2nnnn2CCO)c([N+](=O)[O-])c1`, the inhibition was inactive: -1.26%.

With `CCOC(=O)C(CC)C1=NC(C)(C)Cc2ccccc21.O=[N+]([O-])c1cc([N+](=O)[O-])c(O)c([N+](=O)[O-])c1` (configuration not stated), the inhibition is inactive: -7.37%.

Turning to `O=[N+]([O-])c1cc([N+](=O)[O-])c(-c2cnn(-c3ccccc3)c2)c([N+](=O)[O-])c1`, the inhibition is inactive: -7.16%.

For `Cc1nc2ccc3ccccc3c2s1.O=[N+]([O-])c1cc([N+](=O)[O-])c(O)c([N+](=O)[O-])c1`, the inhibition is inactive: -6.14%.

`O=[N+]([O-])c1cc([N+](=O)[O-])c(-n2nnc3ccccc32)c([N+](=O)[O-])c1`: the inhibition is inactive: 9.46%.

`Cc1cc(C)cc(OP(C)(=O)Nc2ccccn2)c1` (configuration not stated): the inhibition is inactive: -9.38%.

As for `CP(=O)(Nc1cccc(Br)c1)Oc1ccccc1` (configuration not stated), the inhibition was inactive: -3.46%.

`Cc1ccc(C)c(NP(C)(=O)Oc2ccccc2)c1` (configuration not stated): the inhibition is inactive: 9.09%.

Consider `COc1ccccc1OP(C)(=O)Nc1cccc(Br)c1` (configuration not stated), for which the inhibition was inactive: -9.01%.

With `Cc1cc(C)cc(OP(C)(=O)Nc2ccc(C)cc2C)c1` (configuration not stated), the inhibition is inactive: -5.56%.

As to `CCOC(=O)c1ccc(NP(C)(=O)Oc2cc(C)cc(C)c2)cc1` (configuration not stated), the inhibition was inactive: -12.6%.

For the compound `CC1=NCCc2c1[nH]c1ccccc21.O=[N+]([O-])c1cc([N+](=O)[O-])c(O)c([N+](=O)[O-])c1`, the inhibition was inactive: -8.21%.

Take `O=C(O)c1cccc(Nc2c([N+](=O)[O-])cc([N+](=O)[O-])cc2[N+](=O)[O-])c1`: the inhibition is inactive: -5.56%.

Values taken from PubChem BioAssay AID493091 (Sanford-Burnham Center for Chemical Genomics, 2011).
